# Results from ChEMBL document CHEMBL1145841, “Design and synthesis of poly ADP-ribose polymerase-1 inhibitors. 2. Biological evaluation of aza-5[H]-phenanthridin-6-ones as potent, aqueous-soluble compounds for the treatment of ischemic injuries” (J Med Chem, 2003).
# Chains of the proteins cited; added tags and fusions are not shown.
# UniProt P09874, whole entry: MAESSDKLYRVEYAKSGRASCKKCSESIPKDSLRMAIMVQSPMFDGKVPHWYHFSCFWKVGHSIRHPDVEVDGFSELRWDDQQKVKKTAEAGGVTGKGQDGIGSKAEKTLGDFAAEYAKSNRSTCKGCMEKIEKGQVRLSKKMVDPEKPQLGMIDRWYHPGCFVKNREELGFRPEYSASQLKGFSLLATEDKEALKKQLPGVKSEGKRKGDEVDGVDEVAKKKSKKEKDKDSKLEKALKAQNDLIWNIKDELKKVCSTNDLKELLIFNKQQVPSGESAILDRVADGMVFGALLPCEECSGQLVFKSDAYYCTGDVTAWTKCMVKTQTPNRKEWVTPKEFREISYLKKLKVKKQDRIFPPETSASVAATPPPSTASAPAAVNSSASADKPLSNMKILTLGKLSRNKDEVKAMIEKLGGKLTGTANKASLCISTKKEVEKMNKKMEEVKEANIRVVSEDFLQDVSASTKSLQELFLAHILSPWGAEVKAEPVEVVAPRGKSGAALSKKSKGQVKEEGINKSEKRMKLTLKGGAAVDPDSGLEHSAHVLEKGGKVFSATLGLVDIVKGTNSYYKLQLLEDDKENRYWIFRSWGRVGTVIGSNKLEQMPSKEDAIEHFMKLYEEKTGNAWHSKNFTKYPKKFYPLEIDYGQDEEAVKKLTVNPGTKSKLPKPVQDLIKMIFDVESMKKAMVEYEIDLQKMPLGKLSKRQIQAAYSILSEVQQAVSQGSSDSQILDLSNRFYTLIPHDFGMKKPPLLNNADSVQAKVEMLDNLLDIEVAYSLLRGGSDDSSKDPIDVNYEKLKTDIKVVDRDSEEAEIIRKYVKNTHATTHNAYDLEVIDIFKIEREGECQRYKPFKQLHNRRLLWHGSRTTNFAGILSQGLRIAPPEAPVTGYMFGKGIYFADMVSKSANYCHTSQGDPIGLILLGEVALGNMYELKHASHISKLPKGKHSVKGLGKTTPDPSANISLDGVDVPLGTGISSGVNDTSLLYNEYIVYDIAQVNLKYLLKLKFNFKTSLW
# Target: Poly [ADP-ribose] polymerase 1 (Homo sapiens, UniProt P09874)
row,IC50 [nM],Structure (SMILES)
1,2600,Oc1nc2ccccc2c2ccncc12
2,311,O=c1[nH]c2ncccc2c2ccccc12

row,Structure (SMILES),IC50 [nM]
1,O=C(CN1CCCCC1)Nc1cnc2c(c1)nc(O)c1ccccc12,111
